# PMC5512577 (Nature Communications, 2016)
# Molecular target: T1, phosphodiesterase 6 delta subunit (PDE6δ), N-terminal histidine-tagged (UniProt O43924)
# T1 construct: PDE6δ, the delta subunit of phosphodiesterase 6; the PDE6δ of PDB 3T5G was the search model for the structure solved here (5F2U); also called PrBP/PDE6δ; source: E. coli BL21-CodonPlus(DE3)-RIL, purified (Ni-NTA, gel filtration)
# Assay: fluorescence polarisation; stopped flow; kon: 0.2 μM mantGppNHp-loaded Arl protein with increasing PDE6δ; koff: 2 μM PDE6δ with 0.2 μM mantGppNHp-loaded Arl protein mixed with 200-fold excess of unlabelled Arl protein; Kd=koff/kon; 20 °C
# Conditions: both partners purified
binder,measurement,value
"full-length Arl3, C-terminal histidine-tagged, bound to GppNHp or mantGppNHp (natural protein, UniProt Q9WUL7 1-182, looked up, Loaded with the non-hydrolysable GTP analogue GppNHp (release assays) or mantGppNHp (kinetics with PDE6δ); Species surmised as mouse from earlier work of the same laboratory; the human protein is P36405; also called Arl3^fl; Arl3·GppNHp; source: E. coli BL21-CodonPlus(DE3)-RIL, purified (Ni-NTA, gel filtration)) MGLLSILRKLKSAPDQEVRILLLGLDNAGKTTLLKQLASEDISHITPTQGFNIKSVQSQGFKLNVWDIGGQRKIRPYWRSYFENTDILIYVIDSADRKRFEETGQELTELLEEEKLSCVPVLIFANKQDLLTAAPASEIAEGLNLHTIRDRVWQIQSCSALTGEGVQDGMNWVCKNVNAKKK",fold kon against Arl2^fl,~2 fold
same,fold residence time against Arl3^ΔN,26 fold
